Test results: patent WO2019030706A1 (dated 2019)

Columns and labels:
Assay in all cases: not stated (summary of nonclinical pharmacology)
[1] = target: mature human thrombin (human, UniProt P00734 314-363; P00734 364-622)
[2] = target: mouse thrombin (mouse, UniProt P19221 312-618)
[3] = target: monkey thrombin (monkey)

Measured: Kd

B1: JNJ-64179375, recombinant fully human IgG4 monoclonal anti-thrombin (exosite 1) antibody (antibody, V domains shown)
VH: QVQLIQSGSAVKKPGASVRVSCKVSGYTLTEAAIHWVRQAPGKGLEWMGGLDPQDGETVYAQQFKGRVTMTEDRSTDTAYMEVNNLRSEDTATYYCTTGDFSEFEPFSMDYFHFWGQGTVVTVAS
VL: EIVLTQSPATLSLSPGERATLSCRASQNVASFLAWYQHKPGQAPRLLIYDASSRATDIPIRFSGSGSGTDFTLTISGLEPEDFAVYYCQQRRSWPPLTFGGGTKVEIKR
< 2 nM: all assays above
